Measurements taken from patent publication US8420681B2, “Dioxo-imidazolidine derivatives, which inhibit the enzyme SOAT-1, and pharmaceutical and cosmetic compositions containing them” (Galderma Research & Development, priority 2009, dated 2013).

Amino acid sequences for entries named in this document (tags omitted).
UniProt P35610, whole entry: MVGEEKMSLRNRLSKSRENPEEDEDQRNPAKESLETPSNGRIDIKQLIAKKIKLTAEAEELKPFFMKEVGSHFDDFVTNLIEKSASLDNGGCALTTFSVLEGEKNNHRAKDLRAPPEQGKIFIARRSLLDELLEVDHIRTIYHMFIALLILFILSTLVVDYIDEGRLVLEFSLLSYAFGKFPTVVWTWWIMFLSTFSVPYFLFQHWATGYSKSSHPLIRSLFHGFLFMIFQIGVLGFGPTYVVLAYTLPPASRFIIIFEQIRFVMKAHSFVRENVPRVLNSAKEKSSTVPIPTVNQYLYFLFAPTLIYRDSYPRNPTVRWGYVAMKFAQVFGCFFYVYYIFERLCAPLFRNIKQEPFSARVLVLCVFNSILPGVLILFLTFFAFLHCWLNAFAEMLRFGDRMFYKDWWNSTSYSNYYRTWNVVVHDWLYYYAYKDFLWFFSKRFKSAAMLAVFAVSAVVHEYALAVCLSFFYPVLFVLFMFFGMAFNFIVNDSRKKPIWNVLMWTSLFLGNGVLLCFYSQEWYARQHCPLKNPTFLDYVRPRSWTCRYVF

Target: enzyme ACAT-1 (Homo sapiens, UniProt P35610)
Assay: HepG2 NBD-cholesterol fluorescence test of inhibitory activity towards ACAT-1 (SOAT-1)
Conditions: HepG2 cells, NBD-cholesterol 1 μg/ml, incubation 6 hours at 37° C., fluorescence read (490/540 nm)
Experimental: The compounds (I) according to the invention, and also the pharmaceutically acceptable salts, solvates and/or hydrates thereof, have inhibitory properties on the enzyme SOAT-1. This inhibitory activity on the enzyme SOAT-1 is measured according to a HepG2 primary enzymatic test, as described in Example 23.
The compounds of formula (I) according to the invention were subjected to a test for evaluating their inhibitory activity towards the enzyme ACAT-1, inspired by the following publication: “Identification of ACAT1- and ACAT2-specific inhibitors using a novel, cell based fluorescence assay: individual ACAT uniqueness”, J. Lipid. Res. (2004) vol. 45, pages 378-386.
The principle of this test is based on the use of NBD-cholesterol, a cholesterol analogue whose fluorescence depends on its environment. When this molecule is in a polar environment, it is weakly fluorescent, whereas in a non-polar environment, it is strongly fluorescent. […]
The method below is applied: HepG2 cells are incubated in the presence of NBD-cholesterol (1 μg/ml) and of the test compound of formula (I) in black 96-well transparent-bottomed plates, at a rate of 30 000 cells per well. […] After addition of 50 μl of lysis buffer (10 mM NaPO4, 1% Igepal), the plates are shaken for 5 minutes and the fluorescence is read (excitation at 490 nm, emission at 540 nm) on a Fusion machine (Perkin-Elmer). […]

SMILES: Cc1ccc(N2C(=O)N(CC(=O)NCc3ccccc3)C(=O)C23CCCCC3)cc1
- IC50: 1.19 µM
